Assays:
[1] = biological target: JAK3 (Homo sapiens, UniProt P52333); assay: JAK3 Inhibition Assay; details: read-out: JAK3 enzyme inhibition data (Ki); 1 μM poly(Glu)4Tyr, 5 μM ATP, 1 nM JAK3, 25° C.
[2] = biological target: JAK-2 enzyme (Homo sapiens, UniProt O60674); assay: JAK2 Inhibition Assay; details: read-out: JAK2 enzyme inhibition data (Ki); 15 μM poly(Glu)4Tyr, 12 μM ATP, 25° C.

The chains behind the UniProt entries cited, without tags or fusion partners.
UniProt P52333, whole entry: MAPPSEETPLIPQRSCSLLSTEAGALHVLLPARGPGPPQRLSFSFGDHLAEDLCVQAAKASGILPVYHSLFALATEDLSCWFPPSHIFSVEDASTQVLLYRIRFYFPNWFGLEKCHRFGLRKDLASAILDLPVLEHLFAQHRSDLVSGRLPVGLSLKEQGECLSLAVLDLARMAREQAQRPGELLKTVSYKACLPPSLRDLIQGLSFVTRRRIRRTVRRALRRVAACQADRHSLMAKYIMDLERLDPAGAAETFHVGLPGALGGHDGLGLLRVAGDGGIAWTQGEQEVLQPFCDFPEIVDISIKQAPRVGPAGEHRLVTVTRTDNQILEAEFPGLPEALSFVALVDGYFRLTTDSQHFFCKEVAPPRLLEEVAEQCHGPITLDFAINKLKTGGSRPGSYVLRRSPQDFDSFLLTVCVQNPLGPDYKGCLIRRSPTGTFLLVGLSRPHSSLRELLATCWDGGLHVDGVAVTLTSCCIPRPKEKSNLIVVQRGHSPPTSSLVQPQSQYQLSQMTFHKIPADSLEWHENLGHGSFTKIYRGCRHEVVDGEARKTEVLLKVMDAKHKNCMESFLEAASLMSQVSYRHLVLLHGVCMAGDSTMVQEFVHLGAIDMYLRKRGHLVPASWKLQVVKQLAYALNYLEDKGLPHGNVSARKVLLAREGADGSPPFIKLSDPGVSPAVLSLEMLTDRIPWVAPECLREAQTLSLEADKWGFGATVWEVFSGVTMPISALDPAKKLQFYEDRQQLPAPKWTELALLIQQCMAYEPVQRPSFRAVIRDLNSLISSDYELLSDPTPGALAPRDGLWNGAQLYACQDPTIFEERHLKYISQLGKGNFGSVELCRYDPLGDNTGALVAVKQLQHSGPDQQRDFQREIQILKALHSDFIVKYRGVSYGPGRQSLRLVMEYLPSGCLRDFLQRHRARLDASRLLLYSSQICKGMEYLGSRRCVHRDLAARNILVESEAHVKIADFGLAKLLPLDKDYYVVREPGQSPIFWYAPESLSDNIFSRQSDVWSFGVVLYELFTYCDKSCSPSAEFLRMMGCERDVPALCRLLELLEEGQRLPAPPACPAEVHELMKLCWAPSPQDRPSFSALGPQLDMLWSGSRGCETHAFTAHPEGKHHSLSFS
UniProt O60674, whole entry: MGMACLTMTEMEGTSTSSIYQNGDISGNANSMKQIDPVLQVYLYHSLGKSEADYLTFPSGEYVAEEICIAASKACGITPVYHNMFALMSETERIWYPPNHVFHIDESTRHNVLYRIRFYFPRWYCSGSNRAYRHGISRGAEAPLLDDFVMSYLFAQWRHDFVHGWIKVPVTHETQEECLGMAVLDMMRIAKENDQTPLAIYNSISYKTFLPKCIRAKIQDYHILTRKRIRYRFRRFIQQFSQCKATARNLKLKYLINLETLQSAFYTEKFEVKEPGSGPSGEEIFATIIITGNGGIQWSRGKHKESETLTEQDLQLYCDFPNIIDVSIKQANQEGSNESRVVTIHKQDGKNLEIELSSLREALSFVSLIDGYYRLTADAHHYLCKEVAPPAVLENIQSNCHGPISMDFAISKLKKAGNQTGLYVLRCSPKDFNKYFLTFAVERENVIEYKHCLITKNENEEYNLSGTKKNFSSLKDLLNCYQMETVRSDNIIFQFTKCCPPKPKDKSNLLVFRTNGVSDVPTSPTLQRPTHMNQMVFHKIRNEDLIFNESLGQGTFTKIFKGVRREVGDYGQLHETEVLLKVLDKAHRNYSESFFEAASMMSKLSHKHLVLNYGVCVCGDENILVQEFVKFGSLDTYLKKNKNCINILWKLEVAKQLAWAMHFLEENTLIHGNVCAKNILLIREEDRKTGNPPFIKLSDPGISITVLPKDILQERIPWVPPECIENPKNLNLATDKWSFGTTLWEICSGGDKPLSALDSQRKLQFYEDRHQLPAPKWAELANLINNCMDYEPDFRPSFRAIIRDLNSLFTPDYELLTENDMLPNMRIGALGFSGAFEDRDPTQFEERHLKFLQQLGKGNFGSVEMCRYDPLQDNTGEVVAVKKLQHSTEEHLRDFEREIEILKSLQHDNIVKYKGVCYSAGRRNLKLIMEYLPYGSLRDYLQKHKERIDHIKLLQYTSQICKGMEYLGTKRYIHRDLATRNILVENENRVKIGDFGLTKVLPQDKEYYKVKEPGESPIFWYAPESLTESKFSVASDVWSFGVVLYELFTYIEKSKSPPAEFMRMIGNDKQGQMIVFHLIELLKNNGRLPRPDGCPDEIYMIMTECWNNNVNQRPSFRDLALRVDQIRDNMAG

Structure (SMILES)	Ki [1] [nM]	Ki [2] [nM]
Nc1nc(-c2ccnc3[nH]ccc23)cs1	500 to 5000	500 to 5000
COC(=O)[C@H]1C[C@H]1C(=O)Nc1nc(-c2ccnc3[nH]ccc23)cs1 (relative stereo)	100 to 500	< 100
NC1CCC(C(=O)Nc2nc(-c3ccnc4[nH]ccc34)cs2)CC1 (centres unmarked)	> 5000	500 to 5000
COC(=O)C1CCCCC1C(=O)Nc1nc(-c2ccnc3[nH]ccc23)cs1 (single isomer, unassigned)	100 to 500	< 100
COC(=O)CC1(CC(=O)Nc2nc(-c3ccnc4[nH]ccc34)cs2)CCCC1	100 to 500	< 100
COC(=O)CC(C)(C)CC(=O)Nc1nc(-c2ccnc3[nH]ccc23)cs1	100 to 500	< 100

Next, values leading:

Ki [1] [nM]	Ki [2] [nM]	Structure (SMILES)
500 to 5000	100 to 500	O=C(O)c1ccccc1C(=O)Nc1nc(-c2ccnc3[nH]ccc23)cs1
100 to 500	100 to 500	COC(=O)CCC(=O)Nc1nc(-c2ccnc3[nH]ccc23)cs1
100 to 500	100 to 500	COC(=O)c1ccccc1C(=O)Nc1nc(-c2ccnc3[nH]ccc23)cs1
500 to 5000	500 to 5000	O=C(O)[C@H]1C[C@H]1C(=O)Nc1nc(-c2ccnc3[nH]ccc23)cs1 (relative stereo)

— patent US20090227607A1, “DEAZAPURINES USEFUL AS INHIBITORS OF JANUS KINASES” (priority 2006, published 2009)
